Molecular target: wild-type human cardiac sodium channel, hNav1.5 (Homo sapiens, UniProt Q14524)
Test: Late INa screening assay (late sodium current, PatchXpress whole cell patch clamp)
Format: cell-based
Details: read-out: Late INa % blk
Experimental: The late sodium current (Late INa) and peak sodium current (Peak INa) assays are performed on an automated electrophysiology platform, PatchXpress 7000A (MDS Analytical Technologies, Sunnyvale, Calif.), which uses the whole cell patch clamp technique to measure currents through the cell membrane of up to 16 cells at a time. The assay uses an HEK293 (human embryonic kidney) cell line heterologously expressing the wild-type human cardiac sodium channel, hNav1.5, purchased from Millipore (Billerica, Mass.). No beta subunits were coexpressed with the Na channel alpha subunit. […] Experiments are carried out at 24-27° C.
For both the Late INa and Peak INa assays, series resistance compensation is set to 50% and whole-cell compensation is performed automatically. […] Currents through open sodium channels are automatically recorded and stored in the DataXpress2 database (MDS Analytical Technologies, Sunnyvale, Calif.). Analysis is performed using DataXpress2 analysis software and data are compiled in Excel.
Compound stocks are routinely made in glass vials to 10 mM in dimethyl sulfoxide (DMSO). […]
All compounds are tested to determine their activity in blocking the late sodium current. […] Baseline current in the absence of Na^+ ions is measured at the end of each experiment (after two additions of 0 Na solution-see above) and is used to calculate the percent block by compound.

Chains of the proteins cited; added tags and fusions are not shown.
UniProt Q14524, whole entry: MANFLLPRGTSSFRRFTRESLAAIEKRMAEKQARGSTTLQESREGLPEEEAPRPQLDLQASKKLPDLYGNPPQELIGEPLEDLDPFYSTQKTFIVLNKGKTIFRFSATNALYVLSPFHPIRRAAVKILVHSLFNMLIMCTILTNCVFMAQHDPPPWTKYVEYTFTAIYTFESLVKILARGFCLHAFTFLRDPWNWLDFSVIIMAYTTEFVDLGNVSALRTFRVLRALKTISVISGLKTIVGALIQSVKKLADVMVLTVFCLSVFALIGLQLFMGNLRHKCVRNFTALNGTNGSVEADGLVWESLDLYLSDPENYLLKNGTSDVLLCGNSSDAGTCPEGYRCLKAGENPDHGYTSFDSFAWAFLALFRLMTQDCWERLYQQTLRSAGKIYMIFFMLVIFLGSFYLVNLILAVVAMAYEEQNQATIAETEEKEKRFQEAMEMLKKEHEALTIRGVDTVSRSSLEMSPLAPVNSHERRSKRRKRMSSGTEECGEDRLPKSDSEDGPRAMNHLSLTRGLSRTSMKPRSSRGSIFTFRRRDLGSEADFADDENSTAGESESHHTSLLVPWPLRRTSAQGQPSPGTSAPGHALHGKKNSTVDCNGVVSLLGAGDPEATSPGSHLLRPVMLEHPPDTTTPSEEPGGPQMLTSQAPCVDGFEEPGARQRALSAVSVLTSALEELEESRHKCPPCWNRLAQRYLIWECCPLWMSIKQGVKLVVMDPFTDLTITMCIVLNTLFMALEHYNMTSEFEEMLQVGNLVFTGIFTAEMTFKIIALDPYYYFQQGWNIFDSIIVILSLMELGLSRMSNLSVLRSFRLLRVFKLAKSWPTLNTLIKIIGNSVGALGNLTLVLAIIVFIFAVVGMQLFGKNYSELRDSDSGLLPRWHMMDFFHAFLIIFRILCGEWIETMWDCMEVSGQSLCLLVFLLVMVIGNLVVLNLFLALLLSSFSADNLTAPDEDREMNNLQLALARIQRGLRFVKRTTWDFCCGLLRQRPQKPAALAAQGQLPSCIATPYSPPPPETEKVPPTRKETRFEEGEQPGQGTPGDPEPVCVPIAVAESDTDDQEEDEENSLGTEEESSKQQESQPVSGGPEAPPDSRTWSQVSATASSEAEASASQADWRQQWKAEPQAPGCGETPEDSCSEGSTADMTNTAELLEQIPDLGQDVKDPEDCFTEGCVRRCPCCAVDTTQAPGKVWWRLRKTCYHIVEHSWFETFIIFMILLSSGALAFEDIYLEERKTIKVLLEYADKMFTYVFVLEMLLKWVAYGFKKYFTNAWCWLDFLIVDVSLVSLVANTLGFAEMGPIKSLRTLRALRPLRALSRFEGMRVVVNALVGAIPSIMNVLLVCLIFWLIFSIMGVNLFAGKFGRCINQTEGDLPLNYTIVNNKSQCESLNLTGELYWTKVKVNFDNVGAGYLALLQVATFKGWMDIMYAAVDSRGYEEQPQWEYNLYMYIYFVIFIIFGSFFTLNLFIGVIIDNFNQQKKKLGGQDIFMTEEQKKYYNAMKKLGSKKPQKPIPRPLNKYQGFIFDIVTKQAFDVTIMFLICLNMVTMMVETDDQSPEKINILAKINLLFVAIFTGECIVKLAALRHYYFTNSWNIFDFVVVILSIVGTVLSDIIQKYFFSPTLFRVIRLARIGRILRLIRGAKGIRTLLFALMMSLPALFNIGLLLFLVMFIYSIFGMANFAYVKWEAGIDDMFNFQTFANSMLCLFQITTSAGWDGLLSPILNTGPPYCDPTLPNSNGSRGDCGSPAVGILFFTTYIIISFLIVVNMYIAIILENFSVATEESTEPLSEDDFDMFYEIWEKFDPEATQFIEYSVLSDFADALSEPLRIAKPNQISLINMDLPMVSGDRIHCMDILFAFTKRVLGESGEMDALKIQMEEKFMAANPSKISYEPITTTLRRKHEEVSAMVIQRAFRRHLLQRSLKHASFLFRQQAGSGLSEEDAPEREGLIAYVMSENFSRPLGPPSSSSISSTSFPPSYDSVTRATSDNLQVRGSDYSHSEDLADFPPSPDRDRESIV

Structure (SMILES): CN(C)CCC1=C(C(=O)OCc2ccccc2)C(c2cccc3ccccc23)n2nnnc2N1 (stereo not shown) [PT-338, benzyl 5-(2-(dimethylamino)ethyl)-7-(naphthalen-1-yl)-4,7-dihydrotetrazolo[1,5-a]pyrimidine-6-carboxylate]
- inhibition at 10 µM: 56.3%
